This is an account of results in ChEMBL document CHEMBL6096705, “Identification of a Chemical Probe for BLT2 Activation by Scaffold Hopping” (J Med Chem, 2025).

The target in experiment [1] is T1, Type-1 angiotensin II receptor (Homo sapiens, UniProt P30556). The experiment is described as follows: Antagonist activity at human AT1 receptor expressed in CHO-K1 cells co-expressing GNA14 assessed as inhibition of Val5-Angiotensin-II induced IP-1 accumulation incubated for 90 mins by HTRF assay. The class given is cell-based.
In experiment [2] the target is T1, Type-1 angiotensin II receptor. Briefly: Agonist activity at human AT1 receptor expressed in CHO-K1 cells co-expressing GNA14 assessed as IP-1 accumulation incubated for 90 mins by HTRF assay. The class given is functional, cell-based. (Time-resolved FRET reads energy transfer from a long-lived donor to a nearby acceptor.)

Active and inactive are the calls of the source. No cut-off for these calls is given here.

Regarding `CCCCn1c(=O)n(Cc2ccc(-c3ccccc3C(=O)O)cc2)c2ccccc21`, the result in experiment [1] was inactive.

Regarding `CCCn1c(=O)n(Cc2ccccc2)c2cc(-c3ccccc3C(=O)O)ccc21`, the outcome in experiment [1] was inactive.

For `CCCn1c(=O)n(-c2ccccc2)c2cc(-c3ccccc3C(=O)O)ccc21`, in experiment [1], the result was inactive.

As to `CCCCC(=O)N1CC2(C1)CN(c1ccccc1-c1nnn[nH]1)C2`, the result in experiment [2] and in experiment [1] was inactive.

With `CCCCC(=O)N1Cc2ccc(-c3ccccc3C(=O)O)cc2C1`, in experiment [1], the outcome was inactive.

With `CCCCC(=O)N1CC2(CCN(c3ccccc3-c3nnn[nH]3)CC2)C1`, the result in experiment [2] and in experiment [1] was inactive.
